Laboratory results taken from paper PMC10831071, “Reaction hijacking inhibition of Plasmodium falciparum asparagine tRNA synthetase” (Nature Communications, 2024).
Several values for one entry are separate records, joined by “and”; a condition that tells them apart may be missing. Identical values can stand only once.

How the values were obtained:
HsAsnRS = biological target: T1, HsAsnRS (Homo sapiens, UniProt O43776); experiment: ATP consumption assay (Kinase-Glo), HsAsnRS; format: biochemical; settings: for ATP consumption: HsAsnRS, normalised to 1 (Fig 3D)
T1 construct: HsAsnRS (residues M1–P548) and CDHsAsnRS (residues A98–P548); His6 (N, cleaved yes); made in house; host or cells: E. coli BL21 (DE3), pET11a
T1 sequence (O43776 1-548): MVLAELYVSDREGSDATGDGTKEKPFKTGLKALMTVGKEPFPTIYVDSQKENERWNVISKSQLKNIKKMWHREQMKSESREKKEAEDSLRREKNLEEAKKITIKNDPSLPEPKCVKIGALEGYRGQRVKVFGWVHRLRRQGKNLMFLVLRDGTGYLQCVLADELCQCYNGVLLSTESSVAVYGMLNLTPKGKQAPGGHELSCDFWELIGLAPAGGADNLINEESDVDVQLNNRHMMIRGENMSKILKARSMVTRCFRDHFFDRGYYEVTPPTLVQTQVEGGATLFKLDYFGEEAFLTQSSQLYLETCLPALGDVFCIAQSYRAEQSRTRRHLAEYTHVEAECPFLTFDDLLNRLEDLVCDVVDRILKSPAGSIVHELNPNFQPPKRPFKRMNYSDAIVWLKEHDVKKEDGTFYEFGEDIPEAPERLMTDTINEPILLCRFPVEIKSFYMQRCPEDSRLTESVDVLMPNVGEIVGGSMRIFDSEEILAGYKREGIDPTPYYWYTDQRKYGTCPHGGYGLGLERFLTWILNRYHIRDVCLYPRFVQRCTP

[1] = system: HepG2 mammalian cell line (HepG2-A16-CD81-EGFP); experiment: HepG2 cytotoxicity (CellTiterGlo); format: cell-based, human
Experimental: The cells were then infected with freshly dissected luciferase-expressing P. berghei (PbLuc) (4 × 10^3) sporozoites. After 48 h of incubation with the compound, the viability of P. berghei exoerythrocytic forms (EEF) was measured by bioluminescence using Bright Glow reagent (Promega). HepG2 cytotoxicity was assessed by adding CellTiterGlo reagent (Promega). The plates were read in a PHERAstar FSX reader (BMG LABTECH).

[2] = system: PfGlyRS cKD P. falciparum line; format: cell-based, Plasmodium falciparum; settings: PfGlyRS knockdown vs 500 nM aTc
From the text: (§1) Conditional knockdown (cKD) P. falciparum lines were generated for the cytosolic AsnRS (PF3D7_0211800), cytosolic AlaRS (PF3D7_1367700), cytosolic GlyRS (GlyRS; PF3D7_1420400), PfNT4 (PF3D7_0103200), P. falciparum glutamate dehydrogenase 3 (GDH3; PF3D7_0802000), and P. falciparum carbonic anhydrase (CA, PF3D7_1140000) by fusing the coding sequences and non-coding RNA aptamer sequences in the 3’-UTR, permitting translation regulation using the TetR-DOZI system[59],[60]. Gene editing was achieved by CRISPR/SpCas9 using the linear pSN054 vector that contains cloning sites for the left homology region (LHR) and the right homology region (RHR) as well a target-specific guide RNA under control of the T7 promoter. Cloning into the pSN054 donor vector was carried out following described procedures[59],[60]. The vector includes V5-2xHA epitope tags, a 10x tandem array of TetR aptamers upstream of an Hsp86 3’UTR, and a multicistronic cassette for expression of TetR-DOZI (translation regulation), blasticidin S-deaminase (selection marker) and a Renilla luciferase (RLuc) reporter. All primer and synthetic fragment sequences that were generated using the BioXP™ system and IDT gBlocks™ are included in Supplementary Table 9. The final constructs were sequence-verified and further confirmed by restriction digests.
(§2) Transfection into Cas9- and T7 RNA polymerase-expressing NF54 parasites was carried out by pre-loading red blood cells (RBCs) with the donor vector[61]. […] Cultures were monitored by Giemsa smears and RLuc measurements.
(§3) DMSO- and dihydroartemisinin-treatment (0.5 µM) served as reference controls.

[3] = system: PfGDH3 cKD P. falciparum line; format: cell-based, Plasmodium falciparum; settings: PfGDH3 knockdown vs 500 nM aTc
From the text: as §1, §2, §3

[4] = system: PfAlaRS cKD P. falciparum line; format: cell-based, Plasmodium falciparum; settings: PfAlaRS knockdown vs 500 nM aTc
From the text: as §1, §2, §3

[5] = system: PfNT4 cKD P. falciparum line; format: cell-based, Plasmodium falciparum; settings: PfNT4 knockdown vs 500 nM aTc
From the text: as §1, §2, §3

[6] = system: PfAsnRS cKD P. falciparum line; format: cell-based, Plasmodium falciparum; settings: PfAsnRS knockdown vs 500 nM aTc
From the text: as §1, §2, §3

[7] = system: PfCA cKD P. falciparum line; format: cell-based, Plasmodium falciparum; settings: PfCA knockdown vs 500 nM aTc
From the text: as §1, §2, §3

| SMILES | IC50 (HsAsnRS) [µM] | ATP consumption (HsAsnRS; 0.1 μM AMS) | ATP consumption (HsAsnRS; 1 μM AMS) | ATP consumption (HsAsnRS; 3 μM AMS) | ATP consumption (HsAsnRS; 10 μM AMS) | ATP consumption (HsAsnRS; 30 μM AMS) | ATP consumption (HsAsnRS; 100 μM AMS) | ATP consumption (HsAsnRS; 200 μM AMS) | selectivity index (IC50 HepG2/IC50 PbLuc) [1] | Average fold-shift [2] [fold] | Average fold-shift [3] [fold] | Average fold-shift [4] [fold] | Average fold-shift [5] | Average fold-shift [6] [fold] | Average fold-shift [7] [fold] |
| --- | --- | --- | --- | --- | --- | --- | --- | --- | --- | --- | --- | --- | --- | --- | --- |
| Nc1ncnc2c1ncn2[C@@H]1O[C@H](COS(N)(=O)=O)[C@@H](O)[C@H]1O [AMS, adenosine 5’-O-sulfamate, reference compound] | 26 | 0.994 and 1 | 0.9311 and 0.9198 and 0.9615 | 0.8273 and 0.8247 and 0.8508 | 0.619 and 0.6273 and 0.6831 | 0.4465 and 0.4816 and 0.5434 | 0.3002 and 0.3591 and 0.4295 | 0.2507 and 0.3116 and 0.3738 |  |  |  |  |  |  |  |
| Nc1ncnc2cc(-c3cccc(S(N)(=O)=O)c3)sc12 [OSM-S-106] |  |  |  |  |  |  |  |  | over 140 fold | 1.0 | 1.0 | 1.8 | 3.0 fold and 3 fold | 6.6 | 1.2 |
